In ChEMBL document CHEMBL1131192, “Conformational analysis and automated receptor docking of selective arylacetamide-based kappa-opioid agonists” (1998) one finds Ratio data, which are given here for 4 compounds.

Molecules are shown by their SMILES. Active and inactive are the calls of the source. The calls are words filed in the database; no cut-off is given here.

The subject of assay [1] is Kappa-type opioid receptor (Homo sapiens), P41145 [UNDEFINED MUTATION]. Briefly: Compound was tested for the change in the Opioid receptor kappa 1 binding affinity (Ki(mut)/Ki(wild) for S123A point mutations.
Assay [2] shares this test system. Description: Compound was tested for the change in the Opioid receptor kappa 1 binding affinity (Ki(mut)/Ki(wild) for I294K point mutations.
Assay [3] has the same test system. Description: Compound was tested for the change in the Opioid receptor kappa 1 binding affinity (Ki(mut)/Ki(wild) for D105N point mutations.
Assay [4] has the same test system. Briefly: Compound was tested for the change in the Opioid receptor kappa 1 binding affinity (Ki(mut)/Ki(wild) for E297A point mutations.
Assay [5] shares this test system. Briefly: Compound was tested for the change in the Opioid receptor kappa 1 binding affinity (Ki(mut)/Ki(wild) for I294A point mutations.
The test system is the same in assay [6]. Description: Compound was tested for the change in the Opioid receptor kappa 1 binding affinity (Ki(mut)/Ki(wild) for A298H point mutations.
For assay [7] the test system is unchanged. Briefly: Compound was tested for the change in the Opioid receptor kappa 1 binding affinity (Ki(mut)/Ki(wild) for Y119A point mutations.
Assay [8] has the same test system. Description: Compound was tested for the change in the Opioid receptor kappa 1 binding affinity (Ki(mut)/Ki(wild) for G319V point mutations.
Assay [9] shares this test system. Description: Compound was tested for the change in the Opioid receptor kappa 1 binding affinity (Ki(mut)/Ki(wild) for H291A point mutations.
Assay [10] shares this test system. Briefly: Compound was tested for the change in the Opioid receptor kappa 1 binding affinity (Ki(mut)/Ki(wild) for T109A point mutations.
Assay [11] has the same test system. Description: Compound was tested for the change in the Opioid receptor kappa 1 binding affinity (Ki(mut)/Ki(wild) for D138A point mutations.
Assay [12] deals with Kappa-type opioid receptor (Homo sapiens) (UniProt P41145). Description: Compound was tested for the change in the Opioid receptor kappa 1 binding affinity (Ki(mut)/Ki(wild) for D138A point mutations; No binding.
The target is the same in assay [13]. Briefly: Compound was tested for the change in the Opioid receptor kappa 1 binding affinity (Ki(mut)/Ki(wild) for D105N point mutations; No binding.

As to `CN(C(=O)Cc1cccc2occc12)[C@H]1CC[C@@]2(CCCO2)C[C@@H]1N1CCCC1`, the Ratio came to 0.6 in assay [1]; 160 in [2]; 0.4 in assay [3]; 0.7 in assay [4]; 9.8 in [5]; 0.2 in assay [6]. Moreover, the Ratio in [7] came out at 1.9; in assay [8], 6.3; in [9] it was 6.6; in assay [10], 1.2; in assay [11], 110.

As for `CN(C(=O)Cc1ccccc1)[C@H](CN1CCCC1)c1ccccc1`, the Ratio in [2] amounted to 18; in assay [4], 0.3; in assay [5] it was 1.5; in assay [6], 0.1; in assay [8] it was 28; in [9], 2.4. Moreover, the Ratio in assay [11] is 45.

With `CN(C(=O)Cc1ccccc1)[C@H]1CC[C@@]2(CCCO2)C[C@@H]1N1CCCC1`, the Ratio entry in assay [12] and in [13] was “inactive” throughout.

Turning to `CN(C(=O)Cc1ccc(Cl)c(Cl)c1)C1CCCCC1N1CCCC1` (configuration not stated), the Ratio in assay [3] is 28. Also, the Ratio result in assay [12] was “inactive”.
